Patent publication US20090275570A1, “SUBSTITUTED HETEROCYCLES AND THEIR USE AS CHK1, PDK1 AND PAK INHIBITORS” (ASTRAZENECA AB, priority 2005, published 2009)

Target: T1, CHK1 kinase (Homo sapiens, UniProt O14757)
T1 construct: The kinase domain is expressed in baculovirus and purified by the GST tag; GST; made in house; host or cells: baculovirus system (insect cells implied)
T1 sequence (O14757 9-265 limits assumed): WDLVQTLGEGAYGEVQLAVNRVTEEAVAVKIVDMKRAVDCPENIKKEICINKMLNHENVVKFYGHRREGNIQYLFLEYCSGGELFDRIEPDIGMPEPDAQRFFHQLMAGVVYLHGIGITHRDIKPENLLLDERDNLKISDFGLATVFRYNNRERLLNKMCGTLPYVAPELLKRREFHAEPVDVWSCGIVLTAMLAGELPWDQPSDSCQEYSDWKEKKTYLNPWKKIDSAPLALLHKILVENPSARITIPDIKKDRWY
Test: Checkpoint Kinase 1 Assay (SPA)
Format: biochemical
Description: Checkpoint Kinase 1 Assay: This in vitro assay measures the inhibition of CHK1 kinase by compounds. The kinase domain is expressed in baculovirus and purified by the GST tag. Purified protein and biotinylated peptide substrate (Cdc25C) is then used in a 384 well automated Scintillation Proximity Assay (SPA). Specifically, peptide, enzyme and reaction buffer are mixed and aliquoted into a 384 well plate containing dilution series of compounds and controls. Cold and hot ATP are then added to initiate the reaction. After 2 hours, a SPA bead slurry, […] and EDTA are added to stop the reaction and capture the biotinylated peptide. Plates are then counted on a Topcount. Data is analyzed and IC50s determined for individual compounds.

COc1cccc(-c2cc3c(N[C@H]4CCCNC4)ncc(C(N)=O)c3s2)c1 [Example 5, 2-(3-methoxyphenyl)-4-[(3S)-piperidin-3-ylamino]thieno[3,2-c]pyridine-7-carboxamide]
IC50: 16 nM
